{"source": "paper PMC10218257", "about": "“Ionic Levothyroxine Formulations: Synthesis, Bioavailability, and Cytotoxicity Studies” (International Journal of Molecular Sciences, 2023)", "key": {"[1]": {"assay": "Solubility assays in water, PBS and serum", "format": "physicochemical"}, "[2]": {"assay": "Thermogravimetric analysis (TGA)", "format": "physicochemical", "details": "5 °C min^−1, argon", "method": "Thermogravimetric analyses were performed over a temperature range from room temperature to 500 °C in a thermogravimetric analyzer from Setaram Labsys EVO (France) with a weighing precision of ±0.01%. Each run was conducted at a heating rate of 5 °C min^−1, under a highly pure argon atmosphere purged at 50 mL min^−1, with a mass sample between 8 and 10 mg."}}, "data": [{"substance": "Choline Levothyroxine [[Ch][T4]]", "values": [{"measurement": "Solubility in PBS 37 °C", "setting": "[1]", "result": "284 ± 17", "unit": "µg/mL"}, {"measurement": "Solubility in Serum 37 °C", "setting": "[1]", "result": "334 ± 5", "unit": "µg/mL"}, {"measurement": "Solubility in Water 25 °C", "setting": "[1]", "result": "247 ± 35", "unit": "µg/mL"}, {"measurement": "Solubility in Water 37 °C", "setting": "[1]", "result": "386 ± 15", "unit": "µg/mL"}, {"measurement": "ΔTons, onset shifted to lower temperatures vs neat [Na][T4]", "setting": "[2]", "result": "~ 50 °C"}]}]}
